This is an account of results in patent US20260384439A1, “[1,2,4]-TRIAZOLO[4,3-B]PYRIDAZINE DERIVATIVES USEFUL AS A MEDICAMENT” (published 2026).

Amino acid sequences for entries named in this document (tags omitted).
UniProt P0DMS8, whole entry: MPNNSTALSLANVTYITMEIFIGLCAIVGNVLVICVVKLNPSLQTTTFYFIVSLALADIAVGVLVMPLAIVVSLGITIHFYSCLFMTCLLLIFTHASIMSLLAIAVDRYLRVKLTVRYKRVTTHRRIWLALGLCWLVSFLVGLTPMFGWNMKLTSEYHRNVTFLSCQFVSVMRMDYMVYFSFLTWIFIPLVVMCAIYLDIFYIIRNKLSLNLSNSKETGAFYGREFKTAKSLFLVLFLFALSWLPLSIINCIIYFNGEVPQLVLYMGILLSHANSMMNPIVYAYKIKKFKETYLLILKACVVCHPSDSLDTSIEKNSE
UniProt P30542, whole entry: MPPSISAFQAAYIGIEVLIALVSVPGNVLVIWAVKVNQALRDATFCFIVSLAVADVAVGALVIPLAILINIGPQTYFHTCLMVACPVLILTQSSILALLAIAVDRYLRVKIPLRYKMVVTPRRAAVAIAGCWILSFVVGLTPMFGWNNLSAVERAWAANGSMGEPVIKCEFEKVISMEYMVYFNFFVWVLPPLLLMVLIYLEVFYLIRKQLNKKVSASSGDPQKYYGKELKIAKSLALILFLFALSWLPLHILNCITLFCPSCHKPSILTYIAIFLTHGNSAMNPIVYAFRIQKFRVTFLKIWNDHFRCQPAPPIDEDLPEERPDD
UniProt P29275, whole entry: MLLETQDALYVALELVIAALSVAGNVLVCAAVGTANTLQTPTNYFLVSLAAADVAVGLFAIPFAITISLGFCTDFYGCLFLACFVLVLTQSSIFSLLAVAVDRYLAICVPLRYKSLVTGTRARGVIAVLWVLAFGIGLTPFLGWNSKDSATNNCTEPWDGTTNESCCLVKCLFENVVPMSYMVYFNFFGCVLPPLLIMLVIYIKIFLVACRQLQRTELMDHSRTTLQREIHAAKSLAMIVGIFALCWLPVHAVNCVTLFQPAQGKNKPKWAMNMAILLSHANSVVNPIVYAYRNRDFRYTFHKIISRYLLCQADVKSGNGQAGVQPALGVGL

Read-outs that look alike come from different tables or passages of the source. Marks after values point to notes of the source that are not given here.

In data set [1] the target is T1, A3AR (Homo sapiens, UniProt P0DMS8). The experiment in a line: Adenosine receptor A3AR antagonism radioligand assay ([125I]-AB-MECA). The note with it: read-out: Potency Class A3AR (IC50), [125I]-AB-MECA 0.15 nM, r.t., 120 min, HEK-293 cells.
Data set [2] in a line: Stability noted in HPLC analysis of final compounds.
In data set [3] the test system is ciliated hair cells of organs of Corti. The experiment in a line: Otoprotection in ex vivo cultured organs of Corti (hair cell death by ototoxins). The note with it: for hair cell death: 24 hrs.
Data set [4] relates to PANC-1 (human pancreatic cancer). Put plainly: Antiproliferative activity of cisplatin with compound (175), MTS assay, PANC-1.
In data set [5] the test system is MDA-435 (human breast cancer). The experiment in a line: Antiproliferative activity of cisplatin with compound (175), MTS assay, MDA-435.
Data set [6] has as its system A549 (human lung carcinoma). The experiment in a line: Antiproliferative activity of cisplatin with compound (175), MTS assay, A549.
For data set [7], the target named is T1, A3AR. Put plainly: Panel of 168 GPCRs, PathHunter β-arrestin EFC: A3AR. The note with it: antagonist mode; 0.1 μM compound (175) (FIG. 2).
The test system of another data set is panel of 168 GPCRs. Put plainly: Panel of 168 GPCRs, PathHunter β-arrestin EFC: all other GPCRs. The note with it: agonist and antagonist mode; 0.1 μM compound (175) (FIG. 2).
In the next data set the target is human recombinant A1AR (Homo sapiens, UniProt P30542). Put plainly: Adenosine receptor A1AR antagonism radioligand assay ([3H]-CCPA). The note with it: FIG. 3.
A further data set addresses human recombinant A2AAR (Homo sapiens, UniProt P29274). The experiment in a line: Adenosine receptor A2AAR antagonism radioligand assay ([3H]-CGS). The note with it: FIG. 3.
A further data set addresses human recombinant A2BAR (Homo sapiens, UniProt P29275). The experiment in a line: Adenosine receptor A2BAR antagonism radioligand assay ([3H]-CPX). The note with it: FIG. 3.
For data set [8], the target named is T1, A3AR. The experiment in a line: A3AR functional assay, agonist mode (cAMP, HTRF). The note with it: 1 nM to 3.3 μM compound (175); no stimulus.
Where [9] appears, read: read-out: Cisplatine IC50, compound (175) 0.0 μM.
[10] abbreviates: read-out: Cisplatine IC50, compound (175) 0.3 μM.
Where [11] appears, read: read-out: Cisplatine IC50, compound (175) 1.0 μM.
Setting [12] is: read-out: IC50 of compound (175) alone, no cisplatin.

On to `CCC(CC)Nc1cc(Nc2ccnc(Cl)n2)c2nnc(C(C)C)n2n1`, for which the IC50 at A3AR [1] was less than 0.001 µM.
On to `CCC(CC)Nc1cc(Nc2ccc(Cl)nn2)c2nnc(C(C)C)n2n1`, for which, on A3AR [1], the IC50 is less than 0.001 µM.
On to `CCC(CC)Nc1cc(NC(=O)Oc2ccccc2)c2nnc(C(C)C)n2n1`, for which the “HPLC (stability remark in place of or beside purity)” value (from here on “HPLC”) in data set [2] (alkaline conditions) is “Unstable^b”.
For the molecule `CCC(CC)Nc1cc(Nc2ncncc2OC)c2nnc(C(C)C)n2n1`, the concentration for half-maximal inhibition (IC50) at A3AR [1] lay within 0.1 to 1 µM.
For cisplatin, the hair cell death result in data set [3] (cisplatin 20 μM) is given as “induced the death of hair cells”. Also, the “change of cisplatin IC50 with compound (175)” value in data set [4] is reported as “doubling of the cisplatin IC50 value”. In addition, the IC50 turned out to be 13.5 µM in [4] (setting [9]); 25.2 µM in data set [4] (setting [10]); 20.3 µM in [4] (setting [11]); 19.9 µM in [4] (read-out: Cisplatine IC50, compound (175) 3.0 μM); 24.2 µM in [4] (read-out: Cisplatine IC50, compound (175) 10.0 μM); 29.7 µM in data set [4] (read-out: Cisplatine IC50, compound (175) 30.0 μM). Moreover, the figures for the 50% inhibitory concentration (IC50) in [5] (setting [9]), in [5] (setting [10]) and in data set [5] (setting [11]) were 11.2 µM, 6.4 µM and 5.6 µM, respectively. For the same molecule, the “change of cisplatin cytotoxicity with compound (175)” value in data set [5] and in data set [6] was “slightly increased” in each case.
`CCC(CC)Nc1cc(NC(=O)Cc2ccncc2)c2nnc(C(C)C)n2n1`: at A3AR [1], the IC50 is less than 0.001 µM.
Take `CCC(CC)Nc1cc(Nc2cc(OC)ncn2)c2nnc(C(C)C)n2n1`: the IC50 on A3AR [1] was less than 0.001 µM.
As for `CCC(CC)CNc1cc(Nc2ccc(OC)nn2)c2nnc(C3CC3)n2n1`, on A3AR [1], the IC50 was less than 0.001 µM.
`CSCCCNc1cc(NCc2ccccc2)c2nnc(C(C)C)n2n1`: the “HPLC” value in [2] (acidic conditions) is reported as “Unstableª”.
On to `CCC(CC)Nc1cc(NC(=O)Cc2ccccn2)c2nnc(C(C)C)n2n1`, for which the IC50 at A3AR [1] lay within 0.001 to 0.01 µM.
As to `CCC(CC)Nc1cc(Nc2ccc(OC)nn2)c2nnc(C(C)C)n2n1`, the IC50 on A3AR [1] was less than 0.001 µM.
Consider `CCC(CC)CNc1cc(Nc2cccnn2)c2nnc(C3CC3)n2n1`, for which the IC50 at A3AR [1] is less than 0.001 µM.
On the same count and under the same terms, then `CCC(CC)CCNc1cc(Nc2cccnn2)c2nnc(C(C)C)n2n1`, with less than 0.001 µM; and `CCC(CC)Nc1cc(Nc2ccnc(OC)n2)c2nnc(C(C)C)n2n1`, with less than 0.001 µM.
Turning to gentamycin, the hair cell death entry in [3] (gentamycin 100 μM) is “induced the death of hair cells”.
With `c1ccc(CNc2cc(NC3CC3)nn3c(C4CC4)nnc23)nc1`, the “HPLC” value in data set [2] (alkaline conditions) is reported as 88%^b (unstable).
With `CCC(CC)CNc1cc(Nc2ccc(Cl)nn2)c2nnc(C(C)C)n2n1`, the IC50 on A3AR [1] is less than 0.001 µM.
On to `CCC(CC)CNc1cc(Nc2ccc(OC)nn2)c2nnc(C(C)C)n2n1`, for which the half-inhibitory concentration (IC50) on A3AR [1] is less than 0.001 µM.
Same read-out and setting: under `[2H]C([2H])([2H])Oc1ccc(Nc2cc(NC(CC)CC)nn3c(C(C)C)nnc23)nn1` stands less than 0.001 µM.
With `CCC(CC)Nc1cc(Nc2cccnn2)c2nnc(C3CC3)n2n1`, the “inhibition of A3AR among 168 GPCRs” value at A3AR [7] is “fully inhibited”. The “impact on all other GPCRs” value in the data set with panel of 168 GPCRs is listed as “not or marginally impacted”. For the same molecule, the “selectivity of A3AR compared to A1AR” value at human recombinant A1AR was “selective of A3AR”. Also, the “selectivity of A3AR compared to A2AAR” value on human recombinant A2AAR was “selective of A3AR”. The “selectivity of A3AR compared to A2BAR” value at human recombinant A2BAR is reported as “selective of A3AR”. Besides, the “agonist effect on A3AR” value on A3AR [8] was “no agonist effect was detected”. For the same molecule, the “prevention of hair cell death” value in data set [3] (0.1-1 μM compound (175) with cisplatin 20 μM, gentamycin 100 μM or neomycin 3 mM) is “prevented cell death”. The “level of cell death, ototoxin vs ototoxin + compound (175), statistics” value in [3] (cisplatin, gentamycin or neomycin) is listed as “statistically different”. Further, the half-maximal inhibitory concentration (IC50) in data set [4] (setting [12]), in data set [5] (setting [12]) and in data set [6] (setting [12]) was more than 100 µM each time.
